From publication PMC4281022 (Journal of medicinal chemistry, 2013) come the findings set out here.

By UniProt entry, the sequences of proteins in these tests, tags left out.
UniProt P21554, whole entry: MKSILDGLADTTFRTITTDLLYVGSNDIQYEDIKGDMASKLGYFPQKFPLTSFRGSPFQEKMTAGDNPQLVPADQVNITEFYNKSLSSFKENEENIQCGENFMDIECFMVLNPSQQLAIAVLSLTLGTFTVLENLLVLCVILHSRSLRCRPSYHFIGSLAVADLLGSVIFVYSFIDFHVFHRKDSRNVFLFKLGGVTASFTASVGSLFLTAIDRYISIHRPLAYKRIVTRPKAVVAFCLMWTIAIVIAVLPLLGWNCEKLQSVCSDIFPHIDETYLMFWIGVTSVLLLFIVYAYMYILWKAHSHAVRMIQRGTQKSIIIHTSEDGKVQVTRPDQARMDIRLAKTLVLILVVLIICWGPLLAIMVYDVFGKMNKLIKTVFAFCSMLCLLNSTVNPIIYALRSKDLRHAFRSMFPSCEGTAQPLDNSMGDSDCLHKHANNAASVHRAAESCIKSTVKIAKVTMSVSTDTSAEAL
UniProt P47746, whole entry: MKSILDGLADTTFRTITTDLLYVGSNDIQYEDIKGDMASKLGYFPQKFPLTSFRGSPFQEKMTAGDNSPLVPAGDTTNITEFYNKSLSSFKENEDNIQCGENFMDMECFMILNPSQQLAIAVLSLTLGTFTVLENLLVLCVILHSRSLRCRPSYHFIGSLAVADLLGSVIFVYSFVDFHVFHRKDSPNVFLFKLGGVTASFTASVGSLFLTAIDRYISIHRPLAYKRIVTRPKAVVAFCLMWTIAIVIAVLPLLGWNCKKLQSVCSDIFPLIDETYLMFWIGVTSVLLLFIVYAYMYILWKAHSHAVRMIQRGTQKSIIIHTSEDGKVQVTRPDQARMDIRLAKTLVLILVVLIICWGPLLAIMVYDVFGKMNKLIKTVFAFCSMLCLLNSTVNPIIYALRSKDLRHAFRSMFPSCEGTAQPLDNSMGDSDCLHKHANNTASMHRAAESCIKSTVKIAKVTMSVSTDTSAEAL

The target of assay [1] is human CB1 (Homo sapiens, UniProt P21554). Put plainly: [3H]CP55940 radioligand displacement at CB1, membranes of CHO-K1 cells. The settings on record: ratio of Ki values. The format is binding. (In general: Loss of bound radioactivity is the signal in a displacement assay; it reports binding, not function.)
Assay [2] concerns the target CB1 receptor (Mus musculus, UniProt P47746). In words: Tetrad test: attenuation of central effects of Δ^9-THC. In kind it is in vivo. The settings on record: 30 mg/kg i.v., ICR mice, p < 0.05, with or without 9.

In the case of `O=C(NC1CCN(c2ncnc3c2nc(-c2ccccc2Cl)n3-c2ccc(Cl)cc2)CC1)Oc1ccccc1` [Compound 7, Phenyl N-{1-[8-(2-chlorophenyl)-9-(4-chlorophenyl)-9H-purin-6-yl]piperidin-4-yl}carbamate], the “Selectivity for CB1 over CB2” value in assay [1] is reported as over 4000 fold.

As to `CCCCCc1cc(O)c2c(c1)OC(C)(C)[C@@H]1CCC(C)=C[C@@H]21` [Δ^9-THC, Δ^9-tetrahydrocannabinol, reference compound], in assay [2], the “Antinociception, warm water tail withdrawal” value was “produced antinociception”; the “Catalepsy, ring immobility” value was “catalepsy”; the “Hypothermia, rectal temperature” value is reported as “hypothermia”; the “Spontaneous (locomotor) activity” value is “significantly suppressed locomotor activity”.
